Laboratory results from paper PMC6479711, “Chemical Constituents of Anacardium occidentale as Inhibitors of Trypanosoma cruzi Sirtuins” (Molecules, 2019).

Tested on: Human primary skin fibroblasts (hFIB)
Assay: Host cell toxicity (AlamarBlue)
Type: cell-based
Method: Human primary skin fibroblasts (hFIB) were obtained from patient skin biopsy and cultured in Dulbecco’s Modified Eagle Medium (DMEM) supplemented with 10% fetal bovine serum (FBS) and Penicillin-Streptomycin (0.2 U/mL) (all from Gibco/Life Technologies, Grand Island, NY, USA). The cells were seeded on 96-well plates at 3 × 10^4 cells/mL and treated with the drugs for 72 h of incubation time. Following the treatments, cells were washed with saline solution twice, and cell viability was determined by the AlamarBlue assay (Thermo Fisher Scientific, Carlsbad, CA, USA), according to the manufacturer’s instructions. Colorimetric readings were performed after 24 h at 570 and 600 nm. Fifty-percent cytotoxic concentration (CC50) values were calculated using data points gathered from three independent experiments.

| SMILES | SI (selectivity index), ratio of CC50 (hFIB) to EC50 (amastigote) |
| --- | --- |
| CCC/C=C\C/C=C\CCCCCCCc1cccc(O)c1C(=O)O [Compound 5, 2-Hydroxy-6-(8Z,11Z)-8,11-pentadecadien-1-ylbenzoic acid] | >2 |
| CCCCCC/C=C\CCCCCCCc1cccc(O)c1C(=O)O [Compound 6, 2-Hydroxy-6-(8Z)-8-pentadecenylbenzoic acid] | >2 |
